# Assay results as given in patent publication US8394431B2, “Composition of extracts from plants and the use thereof in prophylaxis or treatment of metabolism disorder of blood lipid” (priority 2008, dated 2013).
# Test system: Hepatic Lipase (HL)
# Assay: HL activity in L-O2 hepatocytes (colorimetric kit)
# Format: cell-based, human
# Details: 50.0 μg/ml, normal 5.16 ± 0.46
# Description: The L-O2 human normal liver cells were cultured in routine way, various concentrations of FTZCE were respectively added after cells fusion, continuously cultured the cells for a certain time followed by collecting cells to prepare cell homogenates. Using LPL/HL detection kit (Nanjing Jiancheng Biotechnology Research Institute), the LPL/HL activity was detected by colorimetric method to research the effects of various composition of extracts from plants conbination on LPL activity and compare the enzyme activity of hepatocyte LPL/HL under the action of different concentrations of FTZEC. The gene expressions of hepatocyte LPL/HL were determined by RT-PCR method to observe the affects of FTZEC on the hepatocyte LPL/HL gene expression.
smiles,measurement,value
CC(C)OC(=O)C(C)(C)Oc1ccc(C(=O)c2ccc(Cl)cc2)cc1 [Fenofibrate],HL activity,7.75 ± 1.92 g FFA/mL supernatant · h
